Test system: human red blood cells
Assay type: cell-based
Method: Cells were pelleted by centrifugation for 10 min, 800xg at RT.

trastuzumab-SO1861 (DAR4): antibody-SO1861 conjugate, DAR4
initial hemolytic activity from ... onwards: ≥ 60.000 nM

— US20230365617A1, “SAPONIN DERIVATIVES FOR USE IN MEDICINE” (priority 2020, published 2023)
